The list shows a part of the results, in another mix than the full data. Inconclusive results are not listed. The source made the active and inactive calls. Rule for the calls, unless noted: active = hit-call score of the fitted dose curve at least 0.9, where 1 is the maximum; inactive = score below 0.9.

By UniProt entry, the sequences of proteins in these tests, tags left out. Where a name states a change or a piece, a line headed by the entry shows the natural chain unless it says otherwise.
UniProt Q16665, whole entry, looked up: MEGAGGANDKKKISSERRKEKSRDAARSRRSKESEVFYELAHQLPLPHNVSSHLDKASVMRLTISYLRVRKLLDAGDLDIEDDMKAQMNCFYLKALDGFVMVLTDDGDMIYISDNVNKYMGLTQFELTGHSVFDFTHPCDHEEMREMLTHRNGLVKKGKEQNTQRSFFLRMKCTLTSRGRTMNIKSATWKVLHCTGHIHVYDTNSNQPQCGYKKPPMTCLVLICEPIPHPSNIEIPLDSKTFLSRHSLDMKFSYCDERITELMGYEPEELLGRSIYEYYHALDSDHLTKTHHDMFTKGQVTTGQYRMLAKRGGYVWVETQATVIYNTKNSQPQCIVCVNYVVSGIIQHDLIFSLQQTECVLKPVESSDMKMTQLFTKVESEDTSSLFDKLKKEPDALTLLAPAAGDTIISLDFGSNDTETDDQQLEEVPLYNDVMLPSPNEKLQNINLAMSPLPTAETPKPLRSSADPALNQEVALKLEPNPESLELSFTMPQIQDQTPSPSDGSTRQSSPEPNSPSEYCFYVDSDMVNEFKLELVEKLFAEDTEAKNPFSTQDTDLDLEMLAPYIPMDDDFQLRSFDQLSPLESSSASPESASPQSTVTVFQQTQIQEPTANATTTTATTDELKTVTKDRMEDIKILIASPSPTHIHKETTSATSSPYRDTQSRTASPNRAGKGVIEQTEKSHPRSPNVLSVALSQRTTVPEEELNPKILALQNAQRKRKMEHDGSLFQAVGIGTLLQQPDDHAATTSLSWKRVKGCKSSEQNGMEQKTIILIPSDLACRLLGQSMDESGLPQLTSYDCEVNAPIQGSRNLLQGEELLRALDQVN
UniProt Q00613: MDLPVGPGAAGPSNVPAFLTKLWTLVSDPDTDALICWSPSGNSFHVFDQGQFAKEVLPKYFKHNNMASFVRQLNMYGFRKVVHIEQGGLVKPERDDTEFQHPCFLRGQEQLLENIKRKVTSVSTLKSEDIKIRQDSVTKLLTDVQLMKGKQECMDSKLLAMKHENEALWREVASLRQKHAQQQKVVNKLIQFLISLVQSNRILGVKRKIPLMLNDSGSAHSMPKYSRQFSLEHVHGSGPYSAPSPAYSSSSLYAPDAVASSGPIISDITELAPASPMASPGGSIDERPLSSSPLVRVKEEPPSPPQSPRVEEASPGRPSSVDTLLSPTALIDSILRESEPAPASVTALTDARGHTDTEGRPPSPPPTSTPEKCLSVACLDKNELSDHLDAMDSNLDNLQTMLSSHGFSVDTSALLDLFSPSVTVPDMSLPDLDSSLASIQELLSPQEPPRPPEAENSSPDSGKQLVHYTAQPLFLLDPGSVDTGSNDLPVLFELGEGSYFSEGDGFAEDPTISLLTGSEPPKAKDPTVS
UniProt P26367: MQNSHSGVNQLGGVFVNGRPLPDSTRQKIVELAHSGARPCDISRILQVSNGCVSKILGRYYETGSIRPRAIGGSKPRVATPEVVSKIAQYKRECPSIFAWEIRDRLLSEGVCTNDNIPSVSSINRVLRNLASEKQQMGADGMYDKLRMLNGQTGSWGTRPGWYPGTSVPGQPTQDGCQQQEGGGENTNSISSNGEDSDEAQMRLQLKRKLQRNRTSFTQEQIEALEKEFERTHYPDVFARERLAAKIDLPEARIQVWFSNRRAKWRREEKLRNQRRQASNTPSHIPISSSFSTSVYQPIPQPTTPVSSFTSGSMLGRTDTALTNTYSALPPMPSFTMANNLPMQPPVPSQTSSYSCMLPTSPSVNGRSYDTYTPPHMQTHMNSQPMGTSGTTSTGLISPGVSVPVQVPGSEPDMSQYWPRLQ
UniProt P08047, whole entry, looked up: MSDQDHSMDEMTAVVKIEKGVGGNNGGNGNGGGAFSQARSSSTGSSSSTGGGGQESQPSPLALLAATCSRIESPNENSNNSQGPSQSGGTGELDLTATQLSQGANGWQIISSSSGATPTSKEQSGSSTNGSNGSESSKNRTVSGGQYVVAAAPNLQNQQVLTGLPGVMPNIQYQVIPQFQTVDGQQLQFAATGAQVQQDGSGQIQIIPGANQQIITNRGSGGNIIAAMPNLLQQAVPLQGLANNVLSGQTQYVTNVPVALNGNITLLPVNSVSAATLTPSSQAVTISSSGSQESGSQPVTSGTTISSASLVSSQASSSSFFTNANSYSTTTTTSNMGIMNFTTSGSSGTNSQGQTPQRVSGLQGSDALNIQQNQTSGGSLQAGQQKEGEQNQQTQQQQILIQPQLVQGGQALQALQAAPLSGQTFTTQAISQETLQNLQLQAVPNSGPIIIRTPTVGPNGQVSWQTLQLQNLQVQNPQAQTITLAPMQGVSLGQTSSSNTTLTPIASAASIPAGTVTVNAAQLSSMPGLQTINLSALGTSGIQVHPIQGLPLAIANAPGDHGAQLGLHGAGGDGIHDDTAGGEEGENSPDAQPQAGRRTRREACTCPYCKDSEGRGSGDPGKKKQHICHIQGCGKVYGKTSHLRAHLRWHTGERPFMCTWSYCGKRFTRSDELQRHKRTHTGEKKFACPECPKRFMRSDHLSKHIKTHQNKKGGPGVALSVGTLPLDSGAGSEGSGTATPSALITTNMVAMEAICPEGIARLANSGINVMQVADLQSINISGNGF
UniProt P40763, whole entry, looked up: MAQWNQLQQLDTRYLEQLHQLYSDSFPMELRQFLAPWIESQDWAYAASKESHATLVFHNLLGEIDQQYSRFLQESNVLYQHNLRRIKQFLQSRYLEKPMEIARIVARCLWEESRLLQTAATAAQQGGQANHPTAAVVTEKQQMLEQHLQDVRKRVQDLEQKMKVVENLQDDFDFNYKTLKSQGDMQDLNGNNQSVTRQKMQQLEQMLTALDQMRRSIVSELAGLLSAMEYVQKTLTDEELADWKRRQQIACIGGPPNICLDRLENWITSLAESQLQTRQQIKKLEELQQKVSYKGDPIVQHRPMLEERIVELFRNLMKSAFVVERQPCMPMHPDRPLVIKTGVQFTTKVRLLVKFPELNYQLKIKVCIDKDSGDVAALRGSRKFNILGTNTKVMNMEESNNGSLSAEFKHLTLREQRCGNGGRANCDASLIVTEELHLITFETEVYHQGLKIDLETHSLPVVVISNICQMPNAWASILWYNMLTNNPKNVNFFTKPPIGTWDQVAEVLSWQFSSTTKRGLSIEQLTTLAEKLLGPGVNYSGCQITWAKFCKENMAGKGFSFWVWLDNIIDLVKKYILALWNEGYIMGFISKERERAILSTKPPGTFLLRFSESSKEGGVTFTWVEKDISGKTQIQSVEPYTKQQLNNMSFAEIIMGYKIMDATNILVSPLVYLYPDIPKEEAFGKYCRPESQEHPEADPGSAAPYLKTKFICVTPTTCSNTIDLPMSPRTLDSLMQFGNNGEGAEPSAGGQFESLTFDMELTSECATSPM
UniProt Q14994: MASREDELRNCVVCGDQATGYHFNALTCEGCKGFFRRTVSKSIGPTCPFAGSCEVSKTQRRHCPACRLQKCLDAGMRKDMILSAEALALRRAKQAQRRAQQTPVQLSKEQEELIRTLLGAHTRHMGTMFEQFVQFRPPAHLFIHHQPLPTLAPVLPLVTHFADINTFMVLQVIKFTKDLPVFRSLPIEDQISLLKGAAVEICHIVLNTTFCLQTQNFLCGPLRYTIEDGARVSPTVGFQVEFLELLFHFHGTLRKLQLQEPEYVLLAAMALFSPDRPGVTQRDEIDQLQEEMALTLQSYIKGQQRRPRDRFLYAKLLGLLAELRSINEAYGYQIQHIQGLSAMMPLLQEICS
UniProt P03372, whole entry, looked up: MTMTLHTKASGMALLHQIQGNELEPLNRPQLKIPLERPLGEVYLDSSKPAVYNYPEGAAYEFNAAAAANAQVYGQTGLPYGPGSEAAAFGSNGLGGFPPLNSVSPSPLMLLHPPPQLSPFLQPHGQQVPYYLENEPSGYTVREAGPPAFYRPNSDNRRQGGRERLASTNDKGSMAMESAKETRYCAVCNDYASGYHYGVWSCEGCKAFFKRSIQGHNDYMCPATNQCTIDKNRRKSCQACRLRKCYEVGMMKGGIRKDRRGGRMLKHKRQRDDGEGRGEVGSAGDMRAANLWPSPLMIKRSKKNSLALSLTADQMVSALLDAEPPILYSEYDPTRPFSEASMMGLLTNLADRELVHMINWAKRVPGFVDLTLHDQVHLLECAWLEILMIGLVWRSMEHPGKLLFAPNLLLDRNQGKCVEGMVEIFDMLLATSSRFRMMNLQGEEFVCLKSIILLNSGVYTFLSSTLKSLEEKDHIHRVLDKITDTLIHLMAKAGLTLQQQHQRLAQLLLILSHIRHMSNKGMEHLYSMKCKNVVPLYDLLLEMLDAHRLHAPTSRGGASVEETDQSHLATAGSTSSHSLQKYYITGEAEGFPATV
UniProt P11474: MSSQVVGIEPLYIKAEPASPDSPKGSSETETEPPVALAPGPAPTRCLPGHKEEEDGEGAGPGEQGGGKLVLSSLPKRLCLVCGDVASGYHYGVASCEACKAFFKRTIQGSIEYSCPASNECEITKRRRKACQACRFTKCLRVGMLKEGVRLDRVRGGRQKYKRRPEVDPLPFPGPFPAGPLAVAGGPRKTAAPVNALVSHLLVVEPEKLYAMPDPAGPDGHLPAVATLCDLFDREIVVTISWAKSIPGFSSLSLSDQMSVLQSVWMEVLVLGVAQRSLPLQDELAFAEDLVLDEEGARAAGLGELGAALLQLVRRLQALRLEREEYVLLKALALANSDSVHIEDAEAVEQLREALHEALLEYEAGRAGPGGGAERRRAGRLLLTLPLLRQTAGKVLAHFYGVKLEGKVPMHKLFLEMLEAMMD

Test [1] is described as follows: ATG_M_32_CIS: Attagene CIS-FACTORIAL HepG2 Assay for M32 Transcription Factor (Internal Marker) (AID 2282949).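 Note: background control marker of the multiplexed CIS panel rather than a real target.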 Conditions: HepG2 Attagene cis-factorial M32 reporter, mRNA; actives raise or lower the signal. The method, boiled down: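 Fluorescent capillary electrophoresis peaks of HpaI-digested, FAM-labelled RT-PCR reporter products give the signal. Source: transiently transfected human liver HepG2 cells, 24 h after chemical dosing; bidirectional fitting against DMSO.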

A short description of test [2]: ATG_M_06_CIS: Attagene CIS-FACTORIAL HepG2 Assay for M06 Transcription Factor (Internal Marker) (AID 2282950). The following applies: HepG2 Attagene CIS-FACTORIAL M06 internal marker reporter; actives raise or lower the signal. An outline of the steps:
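HepG2 cells transiently transfected with cis-regulated multiple reporter transcription units were exposed to chemical for 24 h; reporter mRNA was quantified by RT-PCR, 6-FAM primer labelling, HpaI digestion and capillary electrophoresis, fitted bidirectionally against DMSO.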

For test [3], the target named is Hypoxia-inducible factor 1-alpha (Homo sapiens) (UniProt Q16665). In words: ATG_HIF1a_CIS: Attagene CIS-FACTORIAL HepG2 Assay for human Hypoxia Inducible Factor 1 (HIF1A) (AID 2282951). Conditions: HepG2 Attagene cis-factorial HIF1a reporter transcription; actives raise or lower the signal. An outline of the steps:
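Transient MRTU transfection of human HepG2 liver cells, 24 h compound treatment, then total RNA isolation, oligo(dT) reverse transcription, PCR amplification, fluorescent labelling and capillary electrophoresis of reporter fragments. Gain or loss relative to DMSO.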

For test [4], the target named is Heat shock factor protein 1 (Homo sapiens) (UniProt Q00613). In words: ATG_HSE_CIS: Attagene CIS-FACTORIAL HepG2 Assay for human Heat Shock Transcription Factor 1 (HSE) (AID 2282953). The following applies: HepG2 HSE cis-reporter, Attagene RNA transcription; actives raise or lower the signal. An outline of the steps:
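HepG2 cells transiently transfected with multiple reporter transcription units under cis-regulatory promoter control, measuring endogenous transcription factor activity. After 24 h chemical exposure, reporter mRNA quantified by RT-PCR, fluorescent labelling, HpaI digestion and capillary electrophoresis; bidirectional fit versus DMSO.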

Test [5] in a line: ATG_MRE_CIS: Attagene CIS-FACTORIAL HepG2 Assay for human Metal Responsive Element (MRE) (AID 2282954). Conditions: HepG2 MRE cis-reporter transcription, Attagene multiplex; actives raise or lower the signal. An outline of the steps:
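Step one: transfect HepG2 with cis-regulated reporter units. Step two: dose 24 h. Step three: isolate RNA, RT-PCR, 6-FAM label, HpaI digest, capillary electrophoresis. Fit bidirectionally to DMSO.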

Test [6] can be described thus: ATG_PBREM_CIS: Attagene CIS-FACTORIAL HepG2 Assay for human Phenobarbital-responsive Enhancer Module (PBREM) (AID 2282955). Conditions: HepG2 PBREM cis-reporter, Attagene multiplexed transcription; actives raise or lower the signal. The method, boiled down:
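Endogenous transcription factors in human liver HepG2 cells drive a PBREM cis-element reporter, whose transcript level after 24 h treatment is quantified by RT-PCR with capillary electrophoresis; activity fitted in both directions against DMSO.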

Test [7] concerns the target Paired box protein Pax-6 (Homo sapiens) (UniProt P26367). Briefly: ATG_Pax6_CIS: Attagene CIS-FACTORIAL HepG2 Assay for human Paired Box 6 (PAX6) (AID 2282956). The following applies: HepG2 CIS-FACTORIAL PAX6 reporter transcription, RNA readout; actives raise or lower the signal. The method, boiled down: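 Transient MRTU transfection of HepG2 → compound exposure 24 h → TriZol RNA, oligo(dT) RT → PCR, 6-FAM primer extension, HpaI cut → capillary electrophoresis; activity fitted both directions against DMSO.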

Test [8] is described as follows: ATG_PXRE_CIS: Attagene CIS-FACTORIAL HepG2 Assay for human Pregnane X Receptor Element (PXRE) (AID 2282957). Conditions: HepG2 Attagene CIS-FACTORIAL PXRE reporter, mRNA; actives raise or lower the signal. The method, boiled down: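 HepG2 cells transiently transfected with cis-regulated multiple reporter transcription units; endogenous factor activity measured as reporter mRNA 24 h after dosing. RT-PCR, fluorescent primer extension, HpaI digestion, capillary electrophoresis; bidirectional fit versus DMSO baseline.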

Test [9] is described as follows: ATG_PPRE_CIS: Attagene CIS-FACTORIAL HepG2 Assay for human Peroxisome Proliferator-activated Response Element (PPRE) (AID 2282958). The following applies: HepG2 PPRE cis-element reporter, Attagene transcription factor profiling; actives raise or lower the signal. The method, boiled down: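 HepG2, transient MRTU transfection (cis promoter elements, endogenous TFs). 24 h dosing. RNA → oligo(dT) RT → PCR → 6-FAM primer extension → HpaI digest → CE. Bidirectional fit vs DMSO.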

Test [10] is described as follows: ATG_RORE_CIS: Attagene CIS-FACTORIAL HepG2 Assay for human RAR-related Orphan Receptor Element (RORE) (AID 2282959). The following applies: HepG2 Attagene cis-factorial RORE reporter, mRNA; actives raise or lower the signal. The method, boiled down:
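Transient MRTU transfection of human HepG2 liver cells (FuGene 6); 24 h compound exposure; TriZol RNA, oligo(dT) RT, PCR, FAM labeling, HpaI cut, CE fragment analysis. DMSO = negative control/baseline.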

Test [11] deals with Transcription factor Sp1 (Homo sapiens) (UniProt P08047). In words: ATG_Sp1_CIS: Attagene CIS-FACTORIAL HepG2 Assay for human Specificity Protein 1 (Sp1) (AID 2282961). The following applies: HepG2 Sp1 cis-reporter transcription, actives raise or lower the signal. The method, boiled down:
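Transient MRTU-transfected HepG2, 24 h compound exposure. Total RNA → oligo(dT) RT → PCR of reporter → 6-FAM primer extension → HpaI digest → CE. Endpoint fitted both directions vs DMSO.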

The target of test [12] is Signal transducer and activator of transcription 3 (Homo sapiens) (UniProt P40763). In words: ATG_STAT3_CIS: Attagene CIS-FACTORIAL HepG2 Assay for human Signal Transducer and Activator of Transcription 3 (STAT3) (AID 2282963). The following applies: HepG2, Attagene cis-factorial STAT3 reporter transcription; actives raise or lower the signal. An outline of the steps:
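Transcript-level reporter assay. HepG2 transient MRTU transfection, 24 h exposure, fluorescence detection after RT-PCR and CE; DMSO baseline.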

A short description of test [13]: ATG_TA_CIS: Attagene CIS-FACTORIAL HepG2 Assay for human TA Basal Promoter (AID 2282964). The following applies: HepG2 Attagene CIS-factorial TA basal promoter reporter; actives raise or lower the signal. An outline of the steps:
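HepG2 cells transiently transfected with multiplexed cis-promoter reporter units, dosed 24 h. Reporter mRNA measured by RT-PCR, 6-FAM labelling, HpaI digestion and capillary electrophoresis; bidirectional fit versus DMSO baseline, serving as background control.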

The nature of test [14]: ATG_TCF_b_cat_CIS: Attagene CIS-FACTORIAL HepG2 Assay for human T-Cell-Factor with beta-catenin (TCF/b-cat) (AID 2282965). Conditions: HepG2 TCF/beta-catenin cis-reporter transcription, actives raise or lower the signal. The method, boiled down: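 Using capillary electrophoresis as the read-out, labelled reporter cDNA fragments from transiently transfected HepG2 were sized and quantified. Exposure lasted 24 hours; activity in either direction was referenced to DMSO.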

Test [15] in a line: ATG_TAL_CIS: Attagene CIS-FACTORIAL HepG2 Assay for human TAL Basal Promoter (AID 2282966).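 Note: background control endpoint measuring basal TAL promoter reporter mRNA not a specific factor.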 Conditions: HepG2 Attagene cis-factorial TAL promoter reporter; actives raise or lower the signal. An outline of the steps:
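HepG2 cells were transiently transfected with promoter-driven multiplexed reporter units and dosed for 24 h. Reporter mRNA was measured by RT-PCR with capillary electrophoresis fluorescence; bidirectional fits used DMSO as baseline, serving as a background control.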

Test [16] can be described thus: ATG_TGFb_CIS: Attagene CIS-FACTORIAL HepG2 Assay for human Transforming Growth Factor (TGF) (AID 2282967). The following applies: HepG2 Attagene CIS TGFb reporter, mRNA transcription; actives raise or lower the signal. An outline of the steps:
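HepG2 cells transiently transfected with cis-promoter-driven multiplexed reporter units; 24 h compound exposure. Reporter mRNA measured by RT-PCR, 6-FAM labeling, HpaI digestion and capillary electrophoresis; bidirectional fit versus DMSO baseline.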

The target in test [17] is Nuclear receptor subfamily 1 group I member 3 (Homo sapiens) (UniProt Q14994). Briefly: ATG_CAR_TRANS: Attagene TRANS-FACTORIAL HepG2 Assay for human Constitutive Androstane Receptor (CAR) (AID 2282969; active = hit-call score of the fitted dose curve at least 0.9, where 1 is the maximum;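 note: activators raise reporter mRNA above DMSO so AC50 marks induction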). Conditions: HepG2 Attagene TRANS-FACTORIAL CAR reporter. The method, boiled down: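 HepG2 cells transiently transfected with multiplexed GAL4-UAS reporter units expressing chimeric NR-Gal4 proteins; compound exposure 24 h. Reporter mRNA measured by RT-PCR, 6-FAM labelling, HpaI digestion and capillary electrophoresis; gain-of-signal fitted against DMSO baseline.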

For test [18], the target named is Estrogen receptor (Homo sapiens) (UniProt P03372). Briefly: ATG_ERa_TRANS: Attagene TRANS-FACTORIAL HepG2 Assay for human Estrogen Receptor alpha (ERa) (AID 2282970; active = hit-call score of the fitted dose curve at least 0.9, where 1 is the maximum). The following applies: HepG2 Attagene TRANS ERa GAL4 reporter, mRNA. An outline of the steps: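 HepG2 cells transiently transfected with multiplexed GAL4-UAS reporter units; ERa activity read via exogenous chimeric NR-Gal4 protein. After 24 hour compound exposure, reporter mRNA measured by RT-PCR with 6-FAM labelling and capillary electrophoresis; gain-of-signal fitted relative to DMSO.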

A short description of test [19]: ATG_VDRE_CIS: Attagene CIS-FACTORIAL HepG2 Assay for human Vitamin D Receptor Element (VDRE) (AID 2282968). Conditions: HepG2 VDRE cis-reporter transcription, actives raise or lower the signal. The method, boiled down: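 RT-PCR/CE readout of reporter mRNA; HepG2, transient transfection, 24 h dosing; DMSO baseline; bidirectional analysis.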
Test [20] deals with Steroid hormone receptor ERR1 (Homo sapiens) (UniProt P11474). In words: ATG_ERRa_TRANS: Attagene TRANS-FACTORIAL HepG2 Assay for human Estrogen-Related Receptor alpha (ERRa) (AID 2282971; active = hit-call score of the fitted dose curve at least 0.9, where 1 is the maximum). The following applies: HepG2 Attagene TRANS reporter, ERRa transactivation. The method, boiled down: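 HepG2 cells transiently transfected with multiplexed GAL4-UAS reporter units reading chimeric ERRa-Gal4 activity; 24 h compound exposure. Reporter mRNA measured by RT-PCR, 6-FAM labelling, HpaI digest and capillary electrophoresis; gain of signal fitted versus DMSO baseline.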

On to `CC(C)CCCCCCCOP(OCCCCCCCC(C)C)Oc1ccccc1`, for which the molecule was called inactive in [1], in test [2], in test [3], in test [5], in [6] and in [7]. For the same molecule, the molecule was called inactive in [9], in [10], in test [12], in [13], in [14] and in test [15]. Moreover, the molecule was called inactive in test [16], in test [17] and in [18]. The AC50 in test [4] is active: 100 µM; in test [8], active: 3.39 µM; in [11] it was active: 126 µM.
Turning to `O=[N+]([O-])c1ccc([N+](=O)[O-])cc1`, the call in test [1], in test [2], in [3], in [6], in test [8] and in test [9] was inactive. In addition, the outcome in test [10], in test [12], in test [13], in [14], in test [15] and in test [16] was inactive. Moreover, the call in test [19] and in test [18] was inactive. The AC50 was active: 61.9 µM in [4], active: 66.8 µM in [5] and active: 100 µM in test [7].
As to `N#CSc1ccc([N+](=O)[O-])cc1[N+](=O)[O-]`, the outcome in [1], in [2], in [3], in test [5], in test [6] and in test [8] was inactive. For the same molecule, the molecule was classed as inactive in test [10], in test [11], in [12], in test [13], in [15] and in test [16].
Take `O=[p+]1oc2ccccc2c2ccccc21` (centres undefined): the result in test [1], in [2], in test [3], in [4], in test [5] and in test [6] was inactive. Further, the call in [7], in test [9], in test [10], in test [11], in [12] and in test [13] was inactive. The result in test [14], in [15], in test [16], in test [19] and in test [20] was inactive. The AC50 in test [8] is active: 63.4 µM.
For the molecule `O=P(Cl)(Oc1ccccc1)Oc1ccccc1`, the outcome in [1], in [2], in test [3], in test [4], in [5] and in test [6] was inactive. Further, the result in [7], in [9], in test [10], in test [11], in [12] and in [13] was inactive. Besides, the result in test [14], in test [15], in test [16], in test [19], in test [17] and in test [18] was inactive. The AC50 in [8] is active: 41.5 µM.

A word on the AC50: it is the concentration at which the activity in the assay is half-maximal.

The values are drawn from PubChem BioAssay (EPA / NIEHS).
